Laboratory results reported in publication PMC4769084, “Aminoglycoside binding and catalysis specificity of aminoglycoside 2″-phosphotransferase IVa: A thermodynamic, structural and kinetic study” (Biochimica et Biophysica Acta, 2016).

Protein sequences, listed by entry. Tags and fused reporters are not part of them.
UniProt O68183, entry or part of it: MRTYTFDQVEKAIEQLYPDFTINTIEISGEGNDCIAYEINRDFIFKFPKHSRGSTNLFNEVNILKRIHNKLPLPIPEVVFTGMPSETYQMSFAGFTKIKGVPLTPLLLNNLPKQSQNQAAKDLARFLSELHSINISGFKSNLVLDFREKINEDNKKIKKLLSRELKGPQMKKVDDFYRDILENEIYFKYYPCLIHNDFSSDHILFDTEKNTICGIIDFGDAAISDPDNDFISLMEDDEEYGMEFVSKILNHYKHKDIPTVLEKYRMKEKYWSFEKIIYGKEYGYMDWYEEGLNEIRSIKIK

Molecular target: APH(2″)-IVa (Enterococcus casseliflavus, UniProt O68183)
Assay: Isothermal titration calorimetry of aminoglycoside binding
Conditions: ITC
Experimental: The enzyme was extensively dialyzed against buffer containing 50 mM Tris–HCl at pH 7.5, 40 mM KCl, 1 mM MgCl2 and ligand solutions were prepared at 5 mM in the final dialysate with readjusting pH to 7.5. The enzyme was used at a final concentration of 150 μM. ITC experiments were carried out at 25 °C in a VP-ITC calorimeter (MicroCal, GE Healthcare). Titrations consisted of 40 injections of 5 μL of ligand every 300 s. The cell stirring speed was 300 rpm. To obtain reliable dissociation constants, the c-value, a unitless parameter obtained by the multiplication of the association constant and the total concentration of ligand binding sites, was kept between 1.8 and 100 for all titrations. Control runs were performed by titrating ligands to buffer, and the resulting background signal was subtracted from the corresponding experimental data. Experiments were carried out at 1 mM free Mg^2 +.
Binding and thermodynamic parameters Ka (association constant), ΔH (enthalpy change) and stoichiometry were obtained by nonlinear least-squares fitting of experimental data using a single-site binding model of the Origin software package (version 5.0) provided with the instrument. The free energy of binding (ΔG) and entropy change at 25 °C (ΔS) were obtained using the following equations:(1) ΔG=–RTlnKa (2) ΔG=ΔH–TΔS
The experiments were performed in triplicate (except with G418 and kanamycin B, in duplicate) and the error values given in the tables are standard deviations.

Substance: Kanamycin A
- Kd (25 °C, pH 7.5, 1 mM free Mg2+, absence of nucleotide, calculated from ITC-derived Ka, mean ± SD): 79.9 ± 6.2 µM
- Kd (25 °C, pH 7.5, 1 mM free Mg2+, absence of nucleotide, calculated from ITC-derived Ka, mean ± SD, listed as kanamycin A): 80 ± 6 µM
- Kd (in the presence of 870 μM MgADP): 87 ± 8 µM
- Kd (in the presence of 1 mM MgAMP-PNP): 103 ± 12 µM
